The assay concerns the target epidermal growth factor receptor (EGFR) (human) (UniProt P00533). Put plainly: cell-based or functional assay.

Turning to “PD-NRs functionalized with anti-EGFR antibodies (anti-EGFR-PD-NRs): ERBITUX (cetuximab) immobilized on polydopamine-coated gold nanorods (antibody)”, the viability of OSCC15 cells after incubation with 9.92 pM NRs and 5 minutes of irradiation is 24%.

The record behind these values is patent US20190008965A1.
